Literature values, collected in PMC10287555, “Camonsertib in DNA damage response-deficient advanced solid tumors: phase 1 trial results” (Nature Medicine, 2023).
Values joined by “and” are separate entries in the source; they are usually repeats but may differ in a detail not shown here. Equal entries are not always repeated.

Tested on: advanced solid tumors
Conditions: human, in vivo; cited from earlier work

C[C@@H]1COCCN1c1cc(-c2ccnn2C)c2ccnc(-c3ccn[nH]3)c2n1 [BAY1895344]
Patients with a response: 4/11 and 5/138
